Assay results as given in article PMC9415951 (Viruses, 2022).

Target: bovine thrombin (Bos taurus, UniProt P00735)
Test: Thrombin inhibition assay (chromogenic substrate S-2238)
Format: biochemical
Conditions: time-dependent inhibition

**Q.** With `N=C(N)N1CCC(C(=O)Nc2cccc(OCc3cc(-c4ccc(Cl)s4)on3)c2)CC1` [Compound 3] as the compound, how does the Ki (incubation time 0 min) read?
**A.** 15.96 ± 0.04 µM

**Q.** And the Ki (incubation time 15 min)?
**A.** 16.7 ± 0.017 µM
